Test results as given in patent US4322528A (priority 1979, dated 1982).

Key:
American Cockroach Nymph = assay: Contact spray, American cockroach nymph; type: in vivo; details: @250 ppm
Housefly Adult = assay: Contact spray, housefly adult; details: @100 ppm
[1] = Stability of dimer / dimer complex
Housefly Larvae = assay: 7-Day exposure, housefly larvae (soil mix); details: @40 ppm, first treatment sub-column (head is a drawing)
[2] = test system: Parathion-resistant Two-spotted Spider Mite Egg; assay: Leaf dip, parathion-resistant two-spotted spider mite, egg; details: @40 ppm
Cotton Aphid Adult = assay: Leaf dip, cotton aphid adult; type: in vivo; details: @10 ppm
Tobacco Budworm Larvae = assay: Leaf feed (leaf dip), tobacco budworm larvae; details: @500 ppm

Molecule | American Cockroach Nymph, Contact Spray, % control @ ppm (American Cockroach Nymph) | Housefly Adult, Contact Spray, % control @ ppm (Housefly Adult) | Stability: t1/2 ([1]; 25°) | regeneration of pentachloro-α-pyrrolenine (PCP) after standing ([1]; after standing at 25°, UV (Et2 O)) | 7-Day Exposure Housefly Larvae Treatment, % control @ ppm (Housefly Larvae) | Parathion-resistant Two-spotted Spider Mite, Egg, % control @ ppm [2] | Cotton Aphid Adult, Leaf Dip, % Control @ ppm (Cotton Aphid Adult) | Tobacco Budworm Larvae, Leaf Feed, % control @ ppm (Tobacco Budworm Larvae)
ClC1(Cl)N2C3(Cl)C(Cl)(Cl)N4C1(Cl)C1(Cl)C4(Cl)C3(Cl)C21Cl (stereo not shown) | 15% | 73% | 220 h | 99.1% | 47% | 21% | – | –
1-aza-6-methloxycarbonyl-2,3,4,7,7-pentachlorobicyclo[2.2.1]hept-2-ene | – | 26% | – | – | 13% | – | 36% | 13%
